US9795602B2, “Polycyclic-carbamoylpyridone compounds and their pharmaceutical use” (Gilead Sciences, Inc., priority 2014, dated 2017)

Protein sequences, listed by entry. Tags and fused reporters are not part of them. Lines headed by an entry give the natural chain unless they say otherwise; changes in a name come on top.
UniProt O15244: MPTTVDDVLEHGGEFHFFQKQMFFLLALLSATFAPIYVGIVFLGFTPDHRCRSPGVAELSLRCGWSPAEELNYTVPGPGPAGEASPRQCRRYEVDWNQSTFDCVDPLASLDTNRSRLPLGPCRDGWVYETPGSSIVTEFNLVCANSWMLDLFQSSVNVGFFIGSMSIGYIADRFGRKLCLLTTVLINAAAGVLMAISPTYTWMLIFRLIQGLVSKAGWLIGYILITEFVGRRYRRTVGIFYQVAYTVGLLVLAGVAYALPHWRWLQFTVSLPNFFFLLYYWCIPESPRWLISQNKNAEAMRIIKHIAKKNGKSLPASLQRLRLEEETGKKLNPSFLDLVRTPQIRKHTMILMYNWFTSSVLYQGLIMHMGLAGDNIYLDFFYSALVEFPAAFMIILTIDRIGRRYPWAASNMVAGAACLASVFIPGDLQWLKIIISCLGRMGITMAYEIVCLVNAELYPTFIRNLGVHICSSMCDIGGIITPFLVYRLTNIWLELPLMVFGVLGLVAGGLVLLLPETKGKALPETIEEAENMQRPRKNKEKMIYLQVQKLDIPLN

What was measured:
[1] = Cytotoxicity (CC50) in MT4 cells, mock-infected; format: cell-based; conditions: human
OCT2 = OCT2 (Homo sapiens (Human), UniProt O15244); experiment: OCT2 inhibition assay (14C-TEA uptake, OCT2-transfected MDCKII cells); format: cell-based

Row | SMILES | CC50 at 5 days [1] | IC50 (OCT2)
1 | CN1C(=O)c2c(O)c(=O)c(C(=O)NCc3c(F)cc(F)cc3F)cn2[C@@H]2CCC[C@H]21 [Compound 6] | 22 µM | 
2 | O=C(NCc1c(F)cc(F)cc1F)c1cn2c(c(O)c1=O)C(=O)N[C@H]1CCC[C@H]12 [Compound 28] |  | 10 µM
3 | CN1C(=O)c2c(O)c(=O)c(C(=O)NCc3c(F)cc(F)cc3F)cn2[C@@H]2CCC[C@@H]21 [Compound 29] | 16.7 µM | 
4 | CN1C(=O)c2c(O)c(=O)c(C(=O)NCc3c(F)cc(F)cc3F)cn2[C@H]2CCC[C@H]21 [Compound 58] | 10.9 µM | 
